Reference: PubChem BioAssay AID624414 (National Center for Advancing Translational Sciences (NCATS), 2012)
The entries are a selection whose mix differs from that of the whole data set. Activity calls are given as the source filed them. Cut-off read from the data, not from the text of the source: active = activation above about 50%; inconclusive = mostly about 30% to 49%; inactive = weaker than that.
Note: 0% is about no effect.

Protein sequences, listed by entry. Tags and fused reporters are not part of them.
UniProt Q9GZU1, whole entry: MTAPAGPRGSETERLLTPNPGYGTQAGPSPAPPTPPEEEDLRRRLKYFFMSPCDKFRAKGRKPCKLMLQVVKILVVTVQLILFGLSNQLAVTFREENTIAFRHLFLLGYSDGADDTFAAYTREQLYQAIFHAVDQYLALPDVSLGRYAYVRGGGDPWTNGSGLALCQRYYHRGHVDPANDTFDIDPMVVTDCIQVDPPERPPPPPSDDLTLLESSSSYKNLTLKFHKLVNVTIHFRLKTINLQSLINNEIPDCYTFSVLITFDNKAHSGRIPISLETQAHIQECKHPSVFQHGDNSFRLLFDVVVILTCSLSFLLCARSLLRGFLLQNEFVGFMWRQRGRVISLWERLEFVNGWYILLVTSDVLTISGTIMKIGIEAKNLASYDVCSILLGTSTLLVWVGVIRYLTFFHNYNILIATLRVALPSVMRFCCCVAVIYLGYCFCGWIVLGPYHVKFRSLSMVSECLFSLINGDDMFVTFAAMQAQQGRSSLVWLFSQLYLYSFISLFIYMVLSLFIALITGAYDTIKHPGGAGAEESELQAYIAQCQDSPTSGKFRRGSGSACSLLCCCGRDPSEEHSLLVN

The compounds below were run against Mucolipin-1 (Homo sapiens) (UniProt Q9GZU1) (assay: qHTS for Agonists of the Human Mucolipin Transient Receptor Potential 1 (TRPML1)). Conditions: TRPML1-expressing cells, Ca2+ dye fluorescence, FDSS; stronger effect = higher value.
From the text: Mutations of human Mucolipin transient receptor potential 1 (TRPML1) cause type IV mucolipidosis (ML4), a devastating neurodegenerative disease in young children. […] Currently, there is no treatment for ML4. […] Under physiological conditions, TRPMLs regulate membrane trafficking by transducing information about PI(3,5)P2 levels into changes in juxtaorganellar Ca2+, thereby triggering membrane fusion/fission events in the late endocytic pathways (endolysosomal trafficking). In addition, TRPML1 mediates release of Fe2+ from late endosomes and lysosomes, which is essential for cellular iron metabolism. Thus, impaired ion (Ca2+ and Fe2+) homeostasis underlies lysosomal dysfunction and ML4 phenotypes. In ML4 cells, the problem is twofold. First, defective Ca2+-dependent membrane trafficking due to TRPML1-deficiency causes accumulation of lipids and other bio-materials in the lysosome. […]
TRPML1-DL cells are dissociated from flasks, counted and, brought up to a density of 500,000 cells per mL of media containing a 1X Tet inducer. […] The assay plate is read on the FDSS using the following protocol: 10 second baseline read, 23nL of compounds and controls are added using 1536 pintool, agonist read for 110 seconds, 1 uL EC80 addition (4uM final 54-4 diluted in media), antagonist read for 110 seconds.
For `CCC(=O)N(c1ccccc1)C1(COC)CCN(CCc2cccs2)CC1`, the activation was inactive: -0.284%. `CCC(=O)N(c1ccccc1)C1(COC)CCN(CCn2nnn(CC)c2=O)CC1` was tested, and the activation was inactive: -0.536%.
